One experiment has as its system Male Wister rats. As to the kind of experiment: Object recognition task model. Type of experiment: in vivo. As to conditions: 3 mg/kg, p.o., rat.
The test system of a further experiment is rats. Nature of the experiment: Radial arm maze, reversal of scopolamine induced amnesia. Format: in vivo. The settings on record: p.o., rat. From the text: The cognition enhancing properties of compounds of this invention were estimated by using this model.
Radial arm maze consists of a central hub of 45 cm diameter. Each arm was of dimension 42.5×15×24 cm. The maze was elevated to a height of 1 m above the ground. […] During this diet restriction period animals were habituated to the novel feed (pellets). […] Animals were randomized on day 2. On the subsequent days the treatment was given as per the allotment. Each animal was introduced into the maze individually for a period of 10 minutes. The arms were baited only once and the animal had to learn the rule that repeated arm entries would not be rewarded. The trial ended once the rat had visited 16 arms or 10 minutes were over or all the pellets were eaten. The arm entries were recorded using the software. Once the trial was over the rat was removed and the maze was cleaned using soap water.

On to `COCCCN1CCC(c2nnc(-c3nn(C(C)C)c4ccccc34)o2)CC1.O=C(O)C(=O)O` [Example 3, 1-isopropyl-3-{5-[1-(3-methoxypropyl)piperidin-4-yl]-[1,3,4]oxadiazol-2-yl}-1H-indazole oxalate salt], for which, in the experiment on Male Wister rats, the Inference entry was “Active”. Moreover, the “Reversal of Scopolamine Induced amnesia - Effective dose range” value in the experiment with rats was 1-3 mg/kg, p.o.

Values taken from US9636335B2, “Heteroaryl compounds as 5-HT4 receptor ligands” (Suven Life Sciences Ltd, priority 2011, dated 2017).
